Laboratory results as given in patent US8044068B2, “Aminopyrrolidine compound” (Taisho Pharmaceutical Co., Ltd, priority 2006, dated 2011).

The chains behind the UniProt entries cited, without tags or fusion partners.
UniProt P32245, whole entry: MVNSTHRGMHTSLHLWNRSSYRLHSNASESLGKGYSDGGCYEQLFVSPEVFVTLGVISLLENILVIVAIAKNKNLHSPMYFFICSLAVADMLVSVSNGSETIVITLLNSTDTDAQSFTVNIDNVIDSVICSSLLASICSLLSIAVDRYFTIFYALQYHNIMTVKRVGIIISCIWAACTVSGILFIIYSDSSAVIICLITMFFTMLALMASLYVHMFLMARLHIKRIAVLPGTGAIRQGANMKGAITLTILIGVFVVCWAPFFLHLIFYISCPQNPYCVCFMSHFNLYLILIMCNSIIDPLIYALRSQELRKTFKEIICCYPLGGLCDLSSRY

target: human MC4 receptor (Homo sapiens, UniProt P32245); assay: MC4 receptor binding experiment ([125I]Nle4-D-Phe7-α-MSH displacement); conditions: human MC4 receptor expressing HEK-293 cell membrane; [125I]Nle4-D-Phe7-α-MSH 0.2 nM, 25° C.
Procedure: The MC4 receptor binding experiment was performed according to the method described in Pharmacology & Toxicology, 79, 161-165, 1996. The human MC4 receptor expressing-cell membrane obtained by expressing the human MC4 receptor in a HEK-293 cell was purchased from Biolinks K.K. The cell membrane was homogenized with 50 mM tris hydrochloride buffer (pH 7.4) containing 2 mM ethylenediaminetetraacetic acid, 10 mM calcium chloride, and 100 μM phenylmethylsulfonyl fluoride. The homogenate was centrifuged at 48,000×g at 4° C. for 20 min. The sediment obtained by centrifugation was rehomogenized with the same buffer, and the homogenate was centrifuged at 48,000×g at 4° C. for 20 min. This procedure was repeated twice. The sediment was suspended in 50 mM tris hydrochloride buffer (pH 7.4) containing 2 mM ethylenediaminetetraacetic acid, 10 mM calcium chloride, 100 μM phenylmethylsulfonyl fluoride, and 0.1% bovine serum albumin at a protein concentration of 100 μg/ml, and the suspension was used as a crude membrane preparation for the binding experiment. The crude membrane preparation (0.25 ml, 25 μg protein) was reacted with [^125I]Nle^4-D-Phe^7-α-MSH (final concentration, 0.2 nM) at 25° C. for 120 min. After completion of the reaction, the reaction solution was filtered by suction, using a cell harvester for the receptor binding experiment, onto a GF/C glass fiber filter paper immersed in 50 mM tris hydrochloride buffer (pH 7.4) containing 0.5% bovine serum for 2 h. Radioactivity on the filter paper was measured using a γ counter. The quantity of binding in the presence of 1 μM Nle^4-D-Phe^7-α-MSH was obtained as nonspecific binding, and specific binding was obtained by deducting the nonspecific binding from the total quantity, binding in the absence of 1 μM Nle^4-D-Phe^7-α-MSH. The test drug was dissolved in 100% DMSO solution and added to the membrane preparation at the same time as [^125I]Nle^4-D-Phe^7-α-MSH. The IC50 value was obtained from the inhibition curve in the range of 10^−10 to 10^−5 M. The binding test results of representative compounds are shown in Table 21 as examples.

Row | SMILES | IC50 [nM]
1 | CN(C)c1cc(N[C@H]2CCN(C(=O)Cc3ccc(OC(F)(F)F)cc3)C2)nc2cscc12 | 49
2 | CO[C@@H]1CCN(c2cc(C)nc(N[C@H]3CCN(C(=O)Cc4ccc(OC(F)(F)F)cc4)C3)c2)C1 | 32
3 | Cc1cc(N2CCC(S(C)(=O)=O)CC2)cc(N[C@H]2CCN(C(=O)Cc3ccc(OC(F)(F)F)cc3)C2)n1 | 30
4 | CS(=O)(=O)N1CC[C@@H](Nc2cc(N[C@H]3CCN(C(=O)Cc4ccc(OC(F)(F)F)cc4)C3)nc3ccsc23)C1 | 23
5 | CN(C)c1nc(N[C@H]2CCN(C(=O)Cc3ccc(OC(F)(F)F)cc3)C2)nc2cscc12 | 35
6 | Cc1cc2nc(N[C@@H]3CN(C(=O)Cc4ccc(OC(F)(F)F)cc4)C[C@H]3O)cc(N(C)C)c2s1 | 52
7 | Cc1cc2nc(N[C@H]3CCN(C(=O)Cc4ccc(OC(F)(F)F)cc4)C3)cc(N(C)C)c2s1 | 74
8 | Cc1cc(N2CCOCC2)cc(N[C@H]2CCN(C(=O)Cc3ccc(OC(F)(F)F)cc3)C2)n1 | 26

same assay, conditions: human MC4 receptor expressing HEK-293 cell membrane; [125I]Nle4-D-Phe7-α-MSH 0.2 nM, 25° C.; tested form: 2HCl

Row | SMILES | IC50 [nM]
9 | O=C(Cc1ccc(OC(F)(F)F)cc1)N1CC[C@H](Nc2nc(N3CCNCC3)c3ccccc3n2)C1 | 6.7
10 | Cc1cc(N2CCC(N)C2)nc(N[C@H]2CCN(C(=O)Cc3ccc(OC(F)(F)F)cc3)C2)n1 (stereo partly shown) | 2.3
11 | O=C(Cc1ccccc1-c1ccc(F)c(F)c1)N1CC[C@H](Nc2nc(N3CCNCC3)c3ccccc3n2)C1 | 5.1
12 | CC(C(=O)N1CC[C@H](Nc2nc(N3CCNCC3)c3ccccc3n2)C1)c1ccc(Cl)cc1 (stereo partly shown) | 16
13 | O=C(Cc1ccccc1-c1ccc(F)c(Cl)c1)N1CC[C@H](Nc2nc(N3CCNCC3)c3ccccc3n2)C1 | 3.8

same assay, conditions: human MC4 receptor expressing HEK-293 cell membrane; [125I]Nle4-D-Phe7-α-MSH 0.2 nM, 25° C.; tested form: HCl

Row | SMILES | IC50 [nM]
14 | Cc1cc(N2CCC(C(=O)N(C)C)CC2)nc(N[C@H]2CCN(C(=O)Cc3ccc(OC(F)(F)F)cc3)C2)n1 | 66
15 | C[C@@H]1CCC[C@H](C)N1c1nc(N[C@H]2CCN(C(=O)Cc3ccccc3-c3ccccc3)C2)nc2ccccc12 | 180
16 | CN(C)c1cc(N[C@H]2CCN(C(=O)Cc3ccc(OC(F)(F)F)cc3)C2)nc2ccccc12 | 28
17 | Cc1cc(N(C)C)nc(N[C@@H]2CN(C(=O)Cc3ccc(OC(F)(F)F)cc3)C[C@H]2O)n1 (relative stereo) | 99
18 | O=C(Cc1ccc(OC(F)(F)F)cc1)N1CC[C@H](Nc2nc(N3CCOCC3)c3ccc(F)cc3n2)C1 | 21

same assay, conditions: human MC4 receptor expressing HEK-293 cell membrane; [125I]Nle4-D-Phe7-α-MSH 0.2 nM, 25° C.; tested form: maleate

Row | SMILES | IC50 [nM]
19 | O=C(Cc1ccc(OC(F)(F)F)cc1)N1CC[C@H](Nc2nc(NCCO)c3sccc3n2)C1 | 66
20 | Cc1cc(N2CCC(C(N)=O)CC2)nc(N[C@H]2CCN(C(=O)Cc3ccc(OC(F)(F)F)cc3)C2)n1 | 30
21 | O=C(Cc1ccc(OC(F)(F)F)cc1)N1CC[C@H](Nc2nc(NCCO)c3cscc3n2)C1 | 24
22 | Cc1cc(NCCO)nc(N[C@H]2CCN(C(=O)Cc3ccc(OC(F)(F)F)cc3)C2)n1 | 60
